Usually IC50 stands for the concentration that gives 50% inhibition.

Sequences of proteins named here, by UniProt entry; tags and fusion partners are left off. A change or cut given only in a name is not applied to a line headed by its entry.
UniProt P42338: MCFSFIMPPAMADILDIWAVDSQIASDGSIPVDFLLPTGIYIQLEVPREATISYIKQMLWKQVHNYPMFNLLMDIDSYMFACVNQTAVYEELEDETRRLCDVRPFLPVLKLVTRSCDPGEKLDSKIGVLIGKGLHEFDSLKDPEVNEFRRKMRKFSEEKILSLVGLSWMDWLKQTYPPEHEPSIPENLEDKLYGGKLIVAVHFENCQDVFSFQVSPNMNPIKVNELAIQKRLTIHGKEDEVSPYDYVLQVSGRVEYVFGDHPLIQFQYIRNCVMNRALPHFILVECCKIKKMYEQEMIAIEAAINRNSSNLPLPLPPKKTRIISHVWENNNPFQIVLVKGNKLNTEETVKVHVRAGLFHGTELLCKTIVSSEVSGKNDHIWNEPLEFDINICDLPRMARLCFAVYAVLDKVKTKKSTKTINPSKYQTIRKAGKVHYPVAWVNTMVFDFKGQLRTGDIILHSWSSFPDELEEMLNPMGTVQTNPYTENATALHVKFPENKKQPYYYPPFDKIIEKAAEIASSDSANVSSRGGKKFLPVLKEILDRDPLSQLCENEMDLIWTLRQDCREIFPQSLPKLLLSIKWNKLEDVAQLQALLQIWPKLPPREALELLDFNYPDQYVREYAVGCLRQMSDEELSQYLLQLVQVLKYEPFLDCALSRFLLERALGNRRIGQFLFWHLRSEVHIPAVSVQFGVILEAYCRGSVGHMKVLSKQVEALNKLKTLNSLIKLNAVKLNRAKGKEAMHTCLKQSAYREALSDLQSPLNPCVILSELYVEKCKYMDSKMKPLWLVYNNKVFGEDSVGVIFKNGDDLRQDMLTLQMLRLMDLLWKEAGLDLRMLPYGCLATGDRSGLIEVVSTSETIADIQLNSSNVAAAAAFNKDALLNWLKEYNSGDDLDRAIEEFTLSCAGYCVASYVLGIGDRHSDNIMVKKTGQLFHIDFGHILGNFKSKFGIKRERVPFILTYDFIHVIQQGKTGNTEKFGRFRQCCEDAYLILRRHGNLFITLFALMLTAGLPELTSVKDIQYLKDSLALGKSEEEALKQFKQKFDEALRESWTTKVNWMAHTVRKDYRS

For the test, the target named is PI3Kβ (Homo sapiens, UniProt P42338). Description: In vitro enzyme inhibition assay (Kinase Glo), PI3Kβ. The settings on record: Test (a); human recombinant enzyme; ATP 8 μM, PIP2 80 μM; Table A. In kind it is biochemical. On the procedure: (a) In Vitro Enzyme Inhibition Assay
The inhibition of PI3Kβ, PI3Kα, PI3Kγ and PI3Kδ was evaluated in a Kinase Glo based enzyme activity assay using human recombinant enzymes. The assay measures depletion of ATP after incubation with enzyme, PIP2 and ATP plus compound. ATP at the end of the reaction is detected by addition of Kinase Glo reagent, in this the Ultra Glo™ luciferase (Promega) uses the ATP as a substrate to catalyze the mono-oxygenation of luciferin and the generation of light. A direct relationship exists between the luminescence measured with the Kinase-Glo Plus Reagent and the amount of ATP remaining in a completed kinase reaction and luminescence is inversely related to kinase activity. Twelve different compound concentrations were tested and raw data from the inhibition of PI3Kβ, PI3Kα, PI3Kγ and PI3Kδ was plotted versus inhibitor concentration.
Compounds in 100% DMSO were added to assay plates by acoustic dispensing. PI3β was added in a Tris buffer (50 mM Tris pH7.4, 0.05% CHAPS, 2.1 mM DTT, and 10 mM MgCl2) and allowed to preincubate with compound for 20 min prior to addition of substrate solution containing PIP2 and ATP. The enzyme reaction was stopped after 80 min by the addition of Kinase Glo detection solution. […] The final concentration of DMSO, ATP and PIP2 in the assay were, 1%, 8 μM, and 80 μM respectively.
IC50 values were calculated using a log curve fitting to a non-linear regression package, fitting raw data to inhibitor concentration.
In general terms: Kinase-Glo measures the ATP left after a reaction by luminescence.
As to `CN(C)C(=O)c1cc(C2CCCN2c2cc(F)cc(F)c2)c2oc(N3CCOCC3)cc(=O)c2c1` (stereo not shown) [Example 1.00, 8-[1-(3,5-difluorophenyl)pyrrolidin-2-yl]-N,N-dimethyl-2-morpholino-4-oxo-4H-chromene-6-carboxamide], the IC50 is 0.013 µM.
The figure for `CN(CCO)C(=O)c1cc(C2CCCN2c2cc(F)cc(F)c2)c2oc(N3CCOCC3)cc(=O)c2c1` (stereo not shown) [Example 1.01, 8-(1-(3,5-difluorophenyl)pyrrolidin-2-yl)-N-(2-hydroxyethyl)-N-methyl-2-morpholino-4-oxo-4H-chromene-6-carboxamide] is 0.016 µM.
As to `O=C(c1cc(C2CCCN2c2cc(F)cc(F)c2)c2oc(N3CCOCC3)cc(=O)c2c1)N1CCC(O)CC1` (stereo not shown) [Example 1.02, 8-(1-(3,5-difluorophenyl)pyrrolidin-2-yl)-6-(4-hydroxypiperidine-1-carbonyl)-2-morpholino-4H-chromen-4-one], the IC50 is 0.015 µM.
The figure for `CN1CCN(C(=O)c2cc([C@H]3CCCN3c3cc(F)cc(F)c3)c3oc(N4CCOCC4)cc(=O)c3c2)CC1` [Example 1.09, 8-[(2R)-(1-(3,5-difluorophenyl)pyrrolidin-2-yl)]-6-(4-methylpiperazine-1-carbonyl)-2-morpholino-4H-chromen-4-one] is 0.007 µM.

Values taken from patent US8530470B2, “Chromenone derivatives” (Astrazeneca AB, priority 2011, dated 2013).
